Legend:
Assay type in all cases: cell-based
L106P-MC4R (Rm1) = target: T1, L106P-MC4R (Rm1) (Homo sapiens, UniProt P32245, L106P); assay: cAMP assay, L106P MC4R (Rm1) in HEK293 cells; conditions: Rm1, increasing concentrations
T1 construct: prolactin signal peptide (N); green fluorescent protein (N); expressed in transfected cells; host or cells: HEK293
Protocol: (§1) HEK293 cells were maintained in Dulbecco's modified Eagle's medium supplemented with 10% fetal bovine serum containing L-glutamine. […] For the internalization assays, stable cell lines expressing wild-type or RASSL-MC4R were generated by G418-mediated selection (10 µg/ml) of clones expressing the neomycin-resistance gene cotransfected with MC4R. Stable cell lines were maintained by selection with 5 µg/ml G418.
(§2) cAMP production was measured with an ultra sensitive enzymatic cAMP assay (CatchPoint, Molecular Devices, Sunnyvale, CA). Transiently transfected cells were plated at 1×10^5/well into 96-well plates coated with poly-D-lysine (Sigma). Forty-eight h after transfection, cells were rinsed in Krebs-Ringer bicarbonate buffer containing glucose (Sigma) and incubated in pre-stimulation buffer containing 0.75 mM 3-isobutyl-1-methylxanthine in the same buffer for 10 min at room temperature. […] The cells were lysed, and cAMP accumulation was measured according to the CatchPoint protocol. cAMP generated under the different experimental conditions was interpolated from a cAMP standard curve for each experiment. Four replicates were used for each condition, and all experiments were repeated at least three times. Emax and EC50 values were calculated with SoftMax Pro. cAMP measurements were performed on transiently transfected cells.

Protein sequences, listed by entry. Tags and fused reporters are not part of them.
UniProt P32245, whole entry L106P: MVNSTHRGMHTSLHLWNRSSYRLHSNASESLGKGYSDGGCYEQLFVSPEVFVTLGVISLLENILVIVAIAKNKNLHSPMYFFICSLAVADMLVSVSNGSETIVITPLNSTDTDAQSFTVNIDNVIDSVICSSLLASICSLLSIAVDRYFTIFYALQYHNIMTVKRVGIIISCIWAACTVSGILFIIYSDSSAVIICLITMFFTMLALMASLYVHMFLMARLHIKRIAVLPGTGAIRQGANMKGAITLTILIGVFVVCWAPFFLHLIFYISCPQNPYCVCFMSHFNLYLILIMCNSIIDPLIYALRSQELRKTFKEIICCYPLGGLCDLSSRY
UniProt P32245, whole entry D122A: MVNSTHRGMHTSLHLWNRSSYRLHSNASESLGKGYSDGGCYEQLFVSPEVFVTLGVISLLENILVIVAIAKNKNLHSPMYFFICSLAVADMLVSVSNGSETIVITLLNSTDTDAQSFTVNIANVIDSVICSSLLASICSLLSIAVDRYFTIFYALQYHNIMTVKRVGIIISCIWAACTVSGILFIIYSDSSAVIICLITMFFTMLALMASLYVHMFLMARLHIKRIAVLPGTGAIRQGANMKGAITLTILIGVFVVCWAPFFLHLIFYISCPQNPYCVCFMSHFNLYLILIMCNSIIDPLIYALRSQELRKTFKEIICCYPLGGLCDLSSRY
UniProt P32245, whole entry: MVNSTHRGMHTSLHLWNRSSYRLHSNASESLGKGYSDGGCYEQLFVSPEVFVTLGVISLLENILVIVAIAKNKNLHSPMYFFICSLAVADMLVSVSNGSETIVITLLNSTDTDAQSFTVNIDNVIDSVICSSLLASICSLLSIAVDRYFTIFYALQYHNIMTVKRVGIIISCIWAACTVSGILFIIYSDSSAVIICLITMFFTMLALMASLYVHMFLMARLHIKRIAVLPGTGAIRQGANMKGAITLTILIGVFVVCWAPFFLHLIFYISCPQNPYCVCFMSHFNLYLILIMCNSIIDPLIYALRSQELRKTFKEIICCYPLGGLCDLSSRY

D122A-MC4R (Rm2) = target: T2, D122A-MC4R (Rm2) (Homo sapiens, UniProt P32245, D122A); assay: cAMP assay, D122A MC4R (Rm2) in HEK293 cells; conditions: Rm2, increasing concentrations
T2 construct: prolactin signal peptide (N); green fluorescent protein (N); expressed in transfected cells; host or cells: HEK293
Protocol: as §1, §2

wild-type MC4R = target: T3, wild-type MC4R (Homo sapiens, UniProt P32245); assay: cAMP assay, wild-type MC4R in transiently transfected HEK293 cells; conditions: WT MC4R, increasing concentrations
T3 construct: prolactin signal peptide (N); expressed in transfected cells; host or cells: HEK293
Protocol: as §1, §2

Activation (cAMP release) in words (L106P-MC4R (Rm1)): did not activate
Activation (cAMP release) in words (D122A-MC4R (Rm2)): did not activate
Activation (cAMP release) in words (wild-type MC4R): significantly weaker potency
Substance: γ-MSH
